From patent US7291638B2, “3-amido-1,2-benzoisoxazole derivatives, process for preparation, and use thereof” (Dongwha Pharm. Ind. Co., Ltd., priority 2001, dated 2007) come the findings set out here.

Data set [1] is described as follows: Pharmacokinetics test in rats (oral; plasma concentration of the compound of formula 2 by HPLC). In kind it is in vivo, rat. To be noted: male Sprague-Dawley rats, vehicle DW (distilled water). How it is done:
Male white rats (Sprague-Dawley) having body weights of 230˜260 g were used, 3˜4 rats were tested for a drug. Rats were fasted for 18˜20 hours before the drug was administered. The weight of rat was measured on the day of the experiment, the drug was administered orally to the rats according to dosage. After administration, rats were lightly anesthetized with diethyl ether. At […], 0.17, 0.5, 1.0, 1.5, 3.0, 5.0, 8.0 hours, the blood was collected from orbit vein of the rats by canulation. The collected blood was centrifuged, and the plasma was isolated. To determine concentration of the drug in plasma, HPLC was carried out as follows. Acetonitrile containing internal standard substance and the isolated plasma was mixed in the same amount, followed by centrifuging at 12,000 rpm. The supernatent was applied to HPLC, bioavailability of the compounds prepared in EXAMPLES was measured by analyzing a plasma concentration of the compound of formula 2.
Pharmacokinetics parameters were measured by noncompartmental analysis, using WinNolin (ver. 1.0 Scientific Consulting Inc., USA). Time and maximum plasma concentration were registered by observed data, half life was calculated by linear regression analysis of terminal elimination phase.

Data set [2] deals with osteoporotic rat induced by ovariectomy. Kind of data set: Area ratio of trabecular bone in osteoporotic rats induced by ovariectomy. In kind it is in vivo. How it is done:
To investigate therapeutic value of the osteoporosis to ovariectomized rats, change in the number of osteoclast cell and area ratio of trabecular bone (volume %) were measured.
After 25 female white rats purchased from Chales River (Japan) were adjusted to a new environment, temperature of 20˜25° C. and relative humidity of 30˜35%. The 5 rats were positioned in a hutch, feed (Sam Yang corporation) and water were supplied to the rats. 20 rats had the operation for the removal of an ovary, 5 rats had the Sham operation for opening and suturing the abdominal cavity, used as Sham control group.
Also, to compare drug efficacies of EXAMPLE and the compound of formula 2, 5 rats removed of the ovary were used as experimental group. The compound of formula 2 was dissolved in injectable distilled water and administered to the rats orally in an amount of 100 mg per kg for 40 days from 10 weeks after ovariectomy or Sham-operation, using oral sonde. 5 ml/kg was administered to the rats. To compare with the compound of formula 2, the compounds of EXAMPLE 1 or 2 were prepared in the same concentration as the compound of formula 2, dissolved in PEG 100 solution (PEG 100:tween 80:water=2:3:15) and administered through intramuscular injection. 5 ml/kg was administered to the rats.
After administration terminated, the femur and tibia were removed from the animals, and fixed in 10% neutral formalin. The fixed tissue was decalcified in a solution (solution mixed 24.4% formic acid and 0.5 N sodium hydroxide) for 5 days, embedded in paraffin and 3˜4 μm sections were prepared. After that prepared section were dyed by hematoxylin-eosin.
Also, the area ratio of trabecular bone was calculated at the section of the femur and tibia respectively, through the equation.

Where [3] appears, read: osteoporotic rats induced by ovariectomy.
Setting [4] is: ovariectomized rats, PEG 100 solution, intramuscular injection, 40 days.

Turning to “{5-[4-(4-diisopropylcarbamoyl-2-methoxy-phenoxy)-butoxy]-benzo[d]isoxazole-3-ylcarbamoyl}-methyl-ammonium methane sulfonic acid salt [Example 1]”, the T1/2 in data set [1] (50 mg/kg) worked out at 2.29 h. For the same substance, in data set [1] (100 mg/kg), the T1/2 came to 5.58 h. In data set [2] (setting [3]), the “area ratio of trabecular bone compared to the control group (in words)” value is on record as “excellently increased” and the “therapeutic value (area ratio of the trabecular bone) compared with the compound of formula 2 (in words)” value is “more distinguished therapeutic value than the compound of formula 2”. Moreover, in data set [2] (setting [4]), the “area ratio of trabecular bone, Femur Left” value is 34.87 ± 3.41*.^## volume %; the “area ratio of trabecular bone, Tibia Left” value is on record as 30.22 ± 6.31 volume %; the “area ratio of trabecular bone, Tibia Right” value is listed as 34.58 ± 14.52 volume %. Moreover, the “area ratio of trabecular bone, Femur Right” value in data set [2] (ovariectomized rats, PEG 100 solution, intramuscular injection, same concentration as formula 2 (100 mg per kg), 40 days) is recorded as 34.59 ± 8.77*.^# volume %.
